Source: PubChem BioAssay AID493027 (The Scripps Research Institute Molecular Screening Center, 2011)
Only a part is listed here, and it is no random draw. The source made the active and inactive calls.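 Rule for the calls: active = inhibition above the screen-wide mean inhibition plus 3 SD (cut at about 44% in these data); inactive = the rest.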

Protein sequences, listed by entry. Tags and fused reporters are not part of them. Lines headed by an entry give the natural chain unless they say otherwise; changes in a name come on top.
UniProt O60240: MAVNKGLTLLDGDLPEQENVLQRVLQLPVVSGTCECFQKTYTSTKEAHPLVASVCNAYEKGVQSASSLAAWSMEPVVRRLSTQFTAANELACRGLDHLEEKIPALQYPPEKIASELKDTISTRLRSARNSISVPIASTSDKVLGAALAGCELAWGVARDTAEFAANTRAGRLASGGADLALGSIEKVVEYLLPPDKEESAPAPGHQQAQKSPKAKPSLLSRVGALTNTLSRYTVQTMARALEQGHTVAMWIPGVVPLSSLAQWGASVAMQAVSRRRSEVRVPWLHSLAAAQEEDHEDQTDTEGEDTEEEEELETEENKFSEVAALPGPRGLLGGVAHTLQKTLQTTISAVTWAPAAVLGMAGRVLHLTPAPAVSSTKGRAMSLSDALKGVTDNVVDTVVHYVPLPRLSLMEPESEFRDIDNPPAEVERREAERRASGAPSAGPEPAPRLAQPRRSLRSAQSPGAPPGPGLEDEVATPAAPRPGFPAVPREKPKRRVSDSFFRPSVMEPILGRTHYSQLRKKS
UniProt Q8WTS1: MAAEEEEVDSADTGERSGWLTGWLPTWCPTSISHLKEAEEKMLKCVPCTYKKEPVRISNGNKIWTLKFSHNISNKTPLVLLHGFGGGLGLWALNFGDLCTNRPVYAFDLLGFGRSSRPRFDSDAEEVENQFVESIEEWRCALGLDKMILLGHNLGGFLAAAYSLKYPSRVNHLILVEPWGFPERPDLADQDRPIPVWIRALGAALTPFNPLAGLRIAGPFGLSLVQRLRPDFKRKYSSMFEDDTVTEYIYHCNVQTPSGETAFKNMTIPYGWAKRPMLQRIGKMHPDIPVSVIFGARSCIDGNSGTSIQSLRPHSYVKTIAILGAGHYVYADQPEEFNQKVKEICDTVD

These compounds were tested against Perilipin-1 (Homo sapiens) + 1-acylglycerol-3-phosphate O-acyltransferase ABHD5 (Homo sapiens) (UniProt O60240+Q8WTS1) (assay: blockers of ABHD5 binding to perilipin-1 – cell lysate, split luciferase complementation, luminescence, NIH validation set, pilot screen (AID 493027;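 note: 0% = DMSO wells with the 100% control not disclosed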)). Details: split G. princeps luciferase complementation, 4 h, at 7.9 µM, stronger effect = higher value.

SMILES | inhibition
CN(C(=O)Cc1ccc(Cl)c(Cl)c1)[C@@H]1CCCC[C@H]1N1CCCC1 | inactive: -11.6%
